## Ab-14 heavy chain CDR variants: yeast mating affinities

Target: peptide PDVDLGDISGINAS, taken from heptad repeat 2 (HR2) of SARS-CoV-2 spike.

Parent: Ab-14, a human scFv built as VH, the linker GGGGSGGGGSGGGGS, VL. Only the CDRs of the heavy chain vary.
VH: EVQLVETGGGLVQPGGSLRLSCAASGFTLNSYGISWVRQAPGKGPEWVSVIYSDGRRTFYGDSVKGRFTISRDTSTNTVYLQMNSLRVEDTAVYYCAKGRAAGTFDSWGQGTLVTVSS
VL: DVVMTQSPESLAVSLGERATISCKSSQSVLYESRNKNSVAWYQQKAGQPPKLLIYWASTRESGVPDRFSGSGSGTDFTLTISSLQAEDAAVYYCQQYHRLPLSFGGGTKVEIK

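Phage display of a naive human antibody library on the peptide gave the parent. Library AAYL49 holds single substitutions and randomly drawn double and triple substitutions in the CDRs. The scFvs were displayed on barcoded MATa yeast, the peptide on MATalpha yeast. Pairs that bind mate more often; barcode pairs of the diploids are counted by sequencing. Scores were corrected for input abundance and mapped to Kd with protein pairs of known affinity run in the same pool. Each pool was mated in three replicate cultures.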

Substitutions are numbered in sequence along the VH above, starting at 1 (not Kabat). Numbers give log10(Kd / nM), so 0 is 1 nM and 3 is 1 µM. Smaller is tighter. Averages over replicates are reported, and they cover detected replicates only. Where no diploid with the target was found in that replicate, the entry reads "ND": below detection, most likely a poor binder, though not proof of it. Background: pairings of library AAYL49 with three empty control strains gave a value in 15% of cases (median 4.06, 5th percentile 2.83). Values in that range, when seen in few replicates, are hard to tell from nonspecific mating. Also given: how often the same scFv was detected with the empty control strains. In this assay the parent's reference entry averaged 0.65; its copy inside this library read 4.11 (one replicate of three).

The variant R56C G99Y gave 1.36, 1.21, 1.34 (mean 1.30; controls 1 of 9).
The variant N30H G33P S53K gave ND, ND, ND (controls 3 of 9).
The variant Y32L I34D S35H gave ND, ND, ND (controls 1 of 9).
The variant Y60N R100E gave 2.65, 2.50, 2.56 (mean 2.57; controls 4 of 9).
The variant V64N A101M gave ND, 2.59, ND (controls 0 of 9).
The variant F27K V50H R100P gave ND, ND, 5.61 (controls 1 of 9).
The variant T28R D62S A102C gave ND, 3.17, 4.19 (mean 3.68; controls 1 of 9).
The variant I34Y D54V R57I gave 4.35, 3.19, 5.18 (mean 4.24; controls 3 of 9).
The variant V64N R100M F105C gave ND, 3.65, ND (controls 4 of 9).
The variant F27T V50D G103R gave ND, ND, ND (controls 2 of 9).
The variant V50I Y52K S107L gave ND, ND, ND (controls 3 of 9).
The variant Y52G S63D T104P gave ND, ND, ND (controls 0 of 9).
The variant G26K F59G T104I gave 6.47, ND, ND (controls 3 of 9).
The variant Y32Q D54W S107C gave 2.88, 4.17, ND (mean 3.53; controls 4 of 9).
The variant L29H Y52M A101Q gave 5.75, 3.79, 3.77 (mean 4.44; controls 2 of 9).
The variant D54V T58F gave ND, ND, 4.22 (controls 2 of 9).
The variant I51D R56I S63F gave ND, 3.79, ND (controls 2 of 9).
The variant T28D G33W gave 5.73, ND, ND (controls 4 of 9).
The variant L29N Y32H G33S gave 0.76, 0.74, 0.36 (mean 0.62; controls 0 of 9).
The variant N30H Y32M gave 2.96, 2.15, 3.36 (mean 2.82; controls 2 of 9).
The variant S35K I51E Y60P gave ND, 3.33, ND (controls 2 of 9).
The variant G26D I51F R57Y gave ND, ND, ND (controls 1 of 9).
The variant R57H G61I gave ND, 3.87, ND (controls 1 of 9).
The variant N30S I51V G103T gave ND, ND, ND (controls 0 of 9).
The variant G26D T104R F105I gave 4.37, ND, ND (controls 0 of 9).
The variant N30F V50K K65D gave ND, ND, 4.83 (controls 1 of 9).
The variant G26S T58H D106S gave ND, ND, ND (controls 0 of 9).
The variant G26A S31C R57Q gave 4.91, 3.28, 3.71 (mean 3.97; controls 5 of 9).
The variant N30Y S35M R100N gave ND, ND, ND (controls 3 of 9).
The variant F27S S35Y Y52T gave ND, 4.80, ND (controls 4 of 9).
The variant D54H R57D gave ND, ND, ND (controls 1 of 9).
The variant A101W A102E S107C gave ND, 3.56, ND (controls 3 of 9).
The variant I51Q K65H S107Q gave ND, ND, ND (controls 2 of 9).
The variant L29M G33V A102C gave ND, ND, ND (controls 2 of 9).
The variant G55P G61P T104R gave ND, ND, ND (controls 2 of 9).
The variant S35V R100Y gave ND, ND, ND (controls 0 of 9).
The variant G33V V50T Y60P gave ND, ND, ND (controls 0 of 9).
The variant R56T R100C T104N gave ND, ND, ND (controls 1 of 9).
The variant T28P S31G S107I gave 1.24, 1.71, 1.57 (mean 1.51; controls 0 of 9).
The variant T58P A101W F105M gave ND, ND, ND (controls 1 of 9).
The variant S31Q Y60K R100Q gave ND, 4.29, ND (controls 1 of 9).
The variant N30Q R56F K65G gave ND, ND, 1.77 (controls 0 of 9).
The variant T28K I34D D62W gave ND, 3.82, ND (controls 0 of 9).
The variant S31N D54N D62R gave ND, 2.70, ND (controls 2 of 9).
The variant G61K A101H gave 0.99, 1.10, 0.99 (mean 1.03; controls 2 of 9).
The variant T28R L29K Y52R gave ND, ND, ND (controls 1 of 9).
The variant V50W F105Y D106Y gave ND, ND, ND (controls 1 of 9).
The variant N30W G61S R100S gave 0.66, 0.87, 0.81 (mean 0.78; controls 0 of 9).
The variant S63T gave 1.46, 1.48, 1.33 (mean 1.42; controls 1 of 9).
The variant I34R V50I gave ND, 4.26, ND (controls 5 of 9).
The variant V50W G103I S107Y gave ND, ND, ND (controls 3 of 9).

From the AlphaSeq antibody data of Engelhart et al. 2022 (doi:10.1038/s41597-022-01779-4), copy in the FLAb collection.